Legend:
GSK3alpha = GSK3alpha (Homo sapiens, UniProt P49840); test: GSK3alpha assay (same as the GSK3beta assay, 0.25 ng/μl GSK3alpha); conditions: ranges of pIC50 (−log IC50 (M)), 1 μM ATP
Experimental: (§1) GSK3beta assays were performed at room temperature in a 100 μl reaction volume of 25 mM Tris (pH 7.4) containing 10 mM MgCl2.6H2O, 1 mM DTI, 0.1 mgiml BSA, 5% glycerol and containing 5.7 ng/μl GSK3β, 5 μM biotinylated phosphorylated CREB peptide, 1 μM ATP, 0.85 μCi/ml ATP-P^33 and a suitable amount of a test compound of formula (I). After one hour, the reaction was terminated by adding 70 μl of Stop mix (0.1 mM ATP, 5 mg/ml streptavidin coated PVT SPA bead pH 11.0). The beads to which the phosphorylated CREB peptide is attached were allowed to settle overnight and the radioactivity of the beads was counted in a microtiterplate scintillation counter and compared with the results obtained in a control experiment (without the presence of a test compound) in order to determine the percentage of GSK3β inhibition. The IC50 value, i.e. the concentration (M) of the test compound at which 50% of GSK3β is inhibited, was calculated from the dose response curve obtained by performing the above-described GSK3β assay in the presence of different amounts of the test compound.
The GSK3alpha assay was performed in the same way as described above for the GSK3beta assay except for the concentration of GSK3alpha which is 0.25 ng/μl.

Amino acid sequences for entries named in this document (tags omitted).
UniProt P49840, whole entry: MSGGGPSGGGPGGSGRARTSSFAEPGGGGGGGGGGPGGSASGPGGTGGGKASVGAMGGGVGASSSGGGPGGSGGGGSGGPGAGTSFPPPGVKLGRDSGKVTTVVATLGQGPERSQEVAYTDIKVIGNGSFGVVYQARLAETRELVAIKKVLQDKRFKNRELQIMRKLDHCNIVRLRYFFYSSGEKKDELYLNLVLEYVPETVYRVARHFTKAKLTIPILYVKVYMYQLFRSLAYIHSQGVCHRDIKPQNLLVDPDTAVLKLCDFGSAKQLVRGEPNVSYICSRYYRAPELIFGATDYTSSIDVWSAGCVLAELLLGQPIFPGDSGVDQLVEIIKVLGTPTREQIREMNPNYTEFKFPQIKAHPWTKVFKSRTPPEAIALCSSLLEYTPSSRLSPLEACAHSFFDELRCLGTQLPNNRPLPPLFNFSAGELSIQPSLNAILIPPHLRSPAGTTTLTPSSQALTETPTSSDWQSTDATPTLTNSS
UniProt P49841, whole entry: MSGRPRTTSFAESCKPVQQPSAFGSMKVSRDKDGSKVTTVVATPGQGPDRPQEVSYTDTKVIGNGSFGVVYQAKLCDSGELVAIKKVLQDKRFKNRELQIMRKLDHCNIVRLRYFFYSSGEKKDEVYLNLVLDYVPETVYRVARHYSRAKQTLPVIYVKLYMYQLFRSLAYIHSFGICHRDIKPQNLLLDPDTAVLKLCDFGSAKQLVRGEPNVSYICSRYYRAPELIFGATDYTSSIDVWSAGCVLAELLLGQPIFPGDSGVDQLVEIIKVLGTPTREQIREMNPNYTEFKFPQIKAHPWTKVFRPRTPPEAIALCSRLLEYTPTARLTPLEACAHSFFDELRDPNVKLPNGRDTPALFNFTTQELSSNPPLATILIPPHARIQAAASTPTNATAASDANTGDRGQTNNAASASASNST

GSK3β = GSK3β (Homo sapiens, UniProt P49841); test: GSK3beta assay (SPA, biotinylated phosphorylated CREB peptide, ATP-P33); conditions: ranges of pIC50 (−log IC50 (M)); 1 μM ATP, room temperature, one hour
Experimental: as §1

- GSK3a pIC50 (GSK3alpha): >8
- GSK3b pIC50 (GSK3β): >8
SMILES: CN1CCN(C(=O)c2ccc(Nc3ncc4nnn(-c5cccc(CCO)c5)c4n3)cc2)CC1
